Here are results for one substance from publication PMC5196007 (Journal of pharmaceutical and biomedical analysis, 2016).

A short description of this series: Stability of analytes in whole blood samples. Type of series: in vitro ADME, rat. Conditions: n = 6.

On to ecgonine, for which the “Stability Bias (%)” value (Bench top (4 hours, room temperature), high concentration 190–320 ng/ml (1 µM)) stood at 3.6%; the “Stability Bias (%)” value (Bench top (4 hours, room temperature), low concentration 1.9–3.2 ng/ml (0.01 µM)) is reported as −1.5%; the “Stability Bias (%)” value (Bench top (4 hours, room temperature), medium concentration 95–160 ng/ml (0.5 µM)) worked out at 7.6%; the “Stability Bias (%)” value (Freeze-thaw (4 cycles), high concentration 190–320 ng/ml (1 µM)) is given as 2.6%; the “Stability Bias (%)” value (Freeze-thaw (4 cycles), low concentration 1.9–3.2 ng/ml (0.01 µM)) is recorded as 3.5%; the “Stability Bias (%)” value (Freeze-thaw (4 cycles), medium concentration 95–160 ng/ml (0.5 µM)) amounted to 10.2%. Further, the “Stability Bias (%)” value is 3.8% (Long-term (−70°C, 4 months), high concentration 190–320 ng/ml (1 µM)); −4.9% (Long-term (−70°C, 4 months), low concentration 1.9–3.2 ng/ml (0.01 µM)); 10.7% (Long-term (−70°C, 4 months), medium concentration 95–160 ng/ml (0.5 µM)).
